EC50 data for 2 molecules are collected here from BindingDB's records for doi:10.1021/jm00009a001 (Cns Research, 1995).

The target of the assay is Metabotropic glutamate receptor 1 (Homo sapiens) (UniProt Q13255). Kind of assay: Concentration for half maximal activation of metabotropic glutamate mGluR1b in human.

A word on the EC50: it is the concentration that produces a half-maximal response. Read a high EC50 as a need for much substance. Molecule `N[C@@]1(C(=O)O)CC[C@@H](C(=O)O)C1` [SMR001230688] gave an EC50 of over 1000 µM.
`N[C@@H](Cn1oc(=O)[nH]c1=O)C(=O)O` [2-amino-3-(3,5-dioxo[1,2,4]oxadiazolidin-2-yl)propionic acid]: the EC50 worked out at 16.4 µM.
